scFv variants of Ab-95 (light chain) against a SARS-CoV-2 spike peptide

Reference: Engelhart et al. 2022, doi:10.1038/s41597-022-01779-4. File: FLAb, binding data.

All variants were tested on one target, the spike HR2 peptide PDVDLGDISGINAS (SARS-CoV-2).

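The parent was found by panning a naive human phage display library on the peptide. In library AAYL52, one, two or three CDR residues were substituted; doubles and triples were drawn at random. The scFvs were displayed on barcoded MATa yeast, the peptide on MATalpha yeast. The frequency of each diploid, read from paired DNA barcodes, reflects how well the two displayed proteins bind. Scores were corrected for input abundance and mapped to Kd with protein pairs of known affinity run in the same pool. There are three technical replicates.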

Parent: Ab-95, a human scFv built as VH, three GGGGS repeats, VL. Only the CDRs of the light chain vary.
VH: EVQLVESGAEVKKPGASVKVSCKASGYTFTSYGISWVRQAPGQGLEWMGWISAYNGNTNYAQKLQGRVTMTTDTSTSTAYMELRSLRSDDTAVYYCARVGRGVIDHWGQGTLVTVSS
VL: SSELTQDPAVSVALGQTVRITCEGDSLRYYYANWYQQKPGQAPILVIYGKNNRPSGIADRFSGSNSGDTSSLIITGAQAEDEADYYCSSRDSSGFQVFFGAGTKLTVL

Positions count from residue 1 of the parent VL; S26C puts C in place of S. The read-out is the apparent dissociation constant on a log10 scale (nM): the lower, the stronger. The mean shown is taken over the replicates in which the pair was detected. "ND" means that the variant was in the library but no mating with the target was seen in that replicate; the authors take this as a sign of poor binding, and no number exists. Background: pairings of library AAYL52 with three empty control strains gave a value in 28% of cases (median 3.91, 5th percentile 2.90). Values in that range, when seen in few replicates, are hard to tell from nonspecific mating. The control count says in how many pairings with the empty strains this scFv gave a signal, with their mean in brackets.

changes	replicates, log10 nM	mean, log10 nM	empty controls
S26C G49W K50H	ND / ND / ND	ND	3 of 9 (3.79)
P54H F95M Q96W	ND / ND / ND	ND	0 of 9
D25E K50W F95S	3.11 / 4.13 / 2.53	3.26	3 of 9 (4.07)
D25G N33W S89R	ND / 4.64 / ND	4.64	1 of 9 (4.10)
L27F G94Y F98G	4.03 / ND / ND	4.03	2 of 9 (3.56)
R28S D91Q S92F	ND / ND / ND	ND	1 of 9 (4.34)
K50Y S89P	4.21 / 3.45 / ND	3.83	3 of 9 (4.09)
K50P N51D D91Q	ND / 3.76 / ND	3.76	1 of 9 (4.57)
N51W P54C S93T	5.36 / ND / 3.93	4.65	3 of 9 (3.68)
G24I G49L V97W	ND / ND / ND	ND	3 of 9 (3.44)
R28E P54G S89M	3.11 / 3.18 / ND	3.15	4 of 9 (4.68)
N33S Q96S	4.50 / 4.00 / ND	4.25	1 of 9 (3.49)
L27H Y29F N52P	ND / ND / ND	ND	3 of 9 (3.87)
Y30P N51H S89N	3.37 / 3.30 / 3.04	3.24	6 of 9 (4.21)
N52Q P54M S92Y	2.08 / 1.80 / 1.87	1.92	2 of 9 (3.46)
R28H	2.22 / 2.56 / 1.89	2.23	1 of 9 (3.82)
S26Y G49R N51D	ND / 3.72 / ND	3.72	1 of 9 (3.04)
G24V S89K F98W	3.27 / 2.96 / 3.35	3.19	1 of 9 (3.15)
R53A S92M	2.97 / 2.52 / 3.32	2.94	1 of 9 (4.12)
P54D R90M S92G	2.67 / 2.71 / 2.47	2.62	5 of 9 (3.98)
A32H S89H R90L	ND / 4.87 / ND	4.87	0 of 9
S92M G94M	4.08 / 2.84 / 3.81	3.58	2 of 9 (4.01)
G24W N51A F95A	4.66 / 4.32 / ND	4.49	4 of 9 (4.23)
L27Q R53F S88L	3.71 / ND / ND	3.71	0 of 9
E23Q R28M R53D	3.03 / 3.60 / ND	3.31	3 of 9 (4.04)
E23G S92C Q96D	3.67 / 3.15 / ND	3.41	0 of 9
D25S S92F S93D	2.31 / 2.59 / 3.08	2.66	2 of 9 (4.62)
D25L R90E S92Y	3.09 / 2.54 / 2.36	2.66	1 of 9 (3.53)
N52R S88Q F98Q	4.35 / 3.50 / 4.35	4.07	3 of 9 (3.84)
Y31A S89T	1.23 / 1.20 / 0.77	1.07	1 of 9 (5.21)
G49A S92P Q96W	3.47 / 2.94 / 2.39	2.93	1 of 9 (3.12)
D25H N51R S88H	ND / ND / 3.16	3.16	3 of 9 (4.27)
A32Q N51H S93Q	2.54 / 3.21 / 2.25	2.67	3 of 9 (3.74)
Y31S S93E F98L	2.12 / 2.62 / 1.72	2.16	1 of 9 (4.03)
N52Q R53C P54C	4.76 / ND / 4.22	4.49	1 of 9 (4.03)
A32P G49C R90D	ND / ND / ND	ND	2 of 9 (3.50)
D25T P54H F98W	ND / ND / ND	ND	1 of 9 (4.05)

Extract of 2 entries:

{"changes": "N52R S88Q F98Q", "replicates, log10 nM": "4.35 / 3.50 / 4.35", "mean, log10 nM": "4.07", "empty controls": "3 of 9 (3.84)"}
{"changes": "N52Q R53C P54C", "replicates, log10 nM": "4.76 / ND / 4.22", "mean, log10 nM": "4.49", "empty controls": "1 of 9 (4.03)"}